Literature values in article PMC9506049, “Oxidation of p-[^125I]Iodobenzoic Acid and p-[^211At]Astatobenzoic Acid Derivatives and Evaluation In Vivo” (International Journal of Molecular Sciences, 2022).

Settings: literature report; cited from earlier work

O=C(O)c1ccc(I(=O)=O)cc1
In vitro stability: stable in vitro
